We go through 6 molecules from patent US10239843B2 (CANCER RESEARCH TECHNOLOGY LIMITED, priority 2014, dated 2019).

Chains of the proteins cited; added tags and fusions are not shown. Lines headed by an entry give the natural chain unless they say otherwise; changes in a name come on top.
UniProt Q86W56: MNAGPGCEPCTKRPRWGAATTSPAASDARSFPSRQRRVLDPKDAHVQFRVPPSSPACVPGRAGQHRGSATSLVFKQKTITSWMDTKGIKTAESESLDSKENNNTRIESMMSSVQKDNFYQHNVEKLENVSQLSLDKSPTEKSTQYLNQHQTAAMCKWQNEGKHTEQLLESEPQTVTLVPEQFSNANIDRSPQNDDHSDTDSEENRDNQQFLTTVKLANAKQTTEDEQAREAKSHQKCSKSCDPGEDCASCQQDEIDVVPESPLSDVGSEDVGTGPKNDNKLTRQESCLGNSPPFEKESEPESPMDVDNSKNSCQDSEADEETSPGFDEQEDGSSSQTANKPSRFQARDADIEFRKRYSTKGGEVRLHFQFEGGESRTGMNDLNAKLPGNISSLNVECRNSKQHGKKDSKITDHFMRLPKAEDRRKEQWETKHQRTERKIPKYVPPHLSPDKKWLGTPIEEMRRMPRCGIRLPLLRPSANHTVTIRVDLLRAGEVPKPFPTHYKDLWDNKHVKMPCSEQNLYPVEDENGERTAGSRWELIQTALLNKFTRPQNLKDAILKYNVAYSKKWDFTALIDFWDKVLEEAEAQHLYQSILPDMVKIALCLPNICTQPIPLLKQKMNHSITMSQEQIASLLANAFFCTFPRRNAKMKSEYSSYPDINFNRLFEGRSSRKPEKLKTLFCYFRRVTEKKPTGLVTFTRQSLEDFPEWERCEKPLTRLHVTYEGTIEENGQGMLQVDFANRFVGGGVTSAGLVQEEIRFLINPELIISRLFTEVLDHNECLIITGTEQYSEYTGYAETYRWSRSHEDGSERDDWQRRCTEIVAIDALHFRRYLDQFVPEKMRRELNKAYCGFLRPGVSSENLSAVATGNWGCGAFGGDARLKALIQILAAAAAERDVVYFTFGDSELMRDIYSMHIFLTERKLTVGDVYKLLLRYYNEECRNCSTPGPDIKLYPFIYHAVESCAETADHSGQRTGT

Assay [1] deals with Human Full Length PARG (Homo sapiens (Human), UniProt Q86W56). The experiment in a line: PARG enzyme assay (TR-FRET). The class given is biochemical.
Assay [2] relates to PARG in HeLa cell line. The experiment in a line: PARG cell assay (PAR chain immunofluorescence after MMS). The class given is cell-based. The conditions noted are these: Homo sapiens, read-out: PARG Cell IC50.
Setting [3] is: read-out: PARG Biochem IC50 Geomean.

Read-outs that look alike come from different tables or passages of the source.

`Cc1noc(C)c1Cn1c(=O)c2cc(S(=O)(=O)NC3(C)CC3)ccc2n(Cc2c(C)noc2C)c1=O` [Eaxmple 129]: in assay [1] (setting [3]), the IC50 was found to be 1040 nM.

As to `C[C@@H](c1ccccc1)n1c(=O)n(C)c(=O)c2cc(S(=O)(=O)NC3(C)CC3)ccc21` [Exampel 132], the IC50 in assay [1] (setting [3]) was 5300 nM.

Regarding `Cn1c(=O)n(CC(=O)c2ccc(N)cc2)c(=O)c2cc(S(=O)(=O)NC3(C)CC3)ccc21` [Example 87], the IC50 in assay [1] (setting [3]) is 1160 nM.

Turning to `Cn1cc(Cn2c(=O)c3cc(S(=O)(=O)NC4(C)CC4)ccc3n(CC3CC3)c2=O)cn1` [Example 174], in assay [1] (setting [3]), the IC50 worked out at 29 nM.

Take `CC1(NS(=O)(=O)c2ccc3ccnc(Cl)c3c2)CC1` [Example 484, 1-Chloro-N-(1-methylcyclopropyl)isoquinoline-7-sulfonamide]: the IC50 in assay [2] was 1610 nM.

With `Cc1cc(Cn2c(=O)n(Cc3nnc(C)s3)c(=O)c3cc(S(=O)(=O)NC4(CF)CC4)ccc32)n(C)n1` [Example 603, 1-[(2,5-Dimethylpyrazol-3-yl)methyl]-N-[1-(fluoromethyl)cyclopropyl]-3-[(5-methyl-1,3,4-thiadiazol-2-yl)methyl]-2,4-dioxo-quinazoline-6-sulfonamide], the half-maximal inhibitory concentration (IC50) in assay [1] (read-out: PARG Biochem IC50) came to 29 nM.
